Laboratory results taken from paper PMC8494022 (Chemical Science, 2021).

System: CT26 cells
Assay: Cellular uptake of FITC-labeled albumin with endocytosis inhibitors
Format: cell-based, murine (Balb/c)
Details: 1 h inhibitor pretreatment, uptake after 3 h

Structure (SMILES): CN(C)CCCN1c2ccccc2Sc2ccc(Cl)cc21 [CHP, chlorpromazine]
- impact on uptake of FITC-labeled albumin: significantly reduced
